Assay results reported in patent US20260382730A1, “SOS1 PROTEIN DEGRADATION AGENT AND USE THEREOF” (published 2026).

The chains behind the UniProt entries cited, without tags or fusion partners. Where a name states a change or a piece, a line headed by the entry shows the natural chain unless it says otherwise.
UniProt Q07889, whole entry: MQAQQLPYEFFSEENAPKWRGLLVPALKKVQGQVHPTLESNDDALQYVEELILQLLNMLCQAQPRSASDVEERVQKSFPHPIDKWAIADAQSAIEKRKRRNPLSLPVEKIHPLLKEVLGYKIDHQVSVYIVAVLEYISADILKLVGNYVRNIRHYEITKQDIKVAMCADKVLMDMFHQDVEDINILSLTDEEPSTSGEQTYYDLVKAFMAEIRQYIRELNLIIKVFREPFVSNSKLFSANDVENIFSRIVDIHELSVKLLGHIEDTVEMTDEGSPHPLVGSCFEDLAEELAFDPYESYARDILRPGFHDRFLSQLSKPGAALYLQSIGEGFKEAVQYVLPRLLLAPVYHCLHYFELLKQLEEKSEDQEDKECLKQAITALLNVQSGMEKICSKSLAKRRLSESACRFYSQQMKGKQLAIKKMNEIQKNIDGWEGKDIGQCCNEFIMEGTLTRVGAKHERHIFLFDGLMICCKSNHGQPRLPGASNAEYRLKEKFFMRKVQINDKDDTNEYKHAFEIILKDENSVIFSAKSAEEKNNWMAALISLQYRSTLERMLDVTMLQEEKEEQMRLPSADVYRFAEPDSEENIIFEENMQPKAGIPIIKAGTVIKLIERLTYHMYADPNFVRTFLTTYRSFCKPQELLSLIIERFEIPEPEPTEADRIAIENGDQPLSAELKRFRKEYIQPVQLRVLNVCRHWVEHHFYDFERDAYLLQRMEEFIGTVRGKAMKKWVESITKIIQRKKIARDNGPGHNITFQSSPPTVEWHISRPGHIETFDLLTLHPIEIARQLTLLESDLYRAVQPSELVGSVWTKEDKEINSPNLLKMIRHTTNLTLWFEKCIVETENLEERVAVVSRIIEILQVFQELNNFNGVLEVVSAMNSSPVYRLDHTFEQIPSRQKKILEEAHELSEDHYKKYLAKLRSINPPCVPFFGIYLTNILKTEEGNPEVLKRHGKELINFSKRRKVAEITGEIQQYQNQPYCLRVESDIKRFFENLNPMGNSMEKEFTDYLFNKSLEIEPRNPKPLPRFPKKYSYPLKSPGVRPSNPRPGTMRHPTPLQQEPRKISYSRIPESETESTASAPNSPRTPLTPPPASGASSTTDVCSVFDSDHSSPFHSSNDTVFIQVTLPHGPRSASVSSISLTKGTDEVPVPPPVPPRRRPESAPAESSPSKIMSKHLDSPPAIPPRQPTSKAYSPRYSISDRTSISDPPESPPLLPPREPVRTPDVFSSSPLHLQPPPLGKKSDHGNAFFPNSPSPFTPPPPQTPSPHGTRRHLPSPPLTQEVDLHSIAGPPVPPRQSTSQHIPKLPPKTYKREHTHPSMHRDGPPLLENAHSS

Assays:
KRAS-G12C/SOS1 = KRAS-G12C/SOS1 (Homo sapiens, UniProt Q07889); assay: KRAS-G12C/SOS1 binding assay (HTRF, competitive inhibition); conditions: read-out: KRAS G12C:SOS1 IC50, 10 μM GTP, 0.5% DMSO, 3 h under ice
Source text: Test Example 1: KRAS-G12C/SOS1 Binding Assay
The following method was used to determine the extent of inhibition of a KRAS-G12C/SOS1 binding by the preferred compound of the present invention under in vitro conditions. This method uses the KRAS-G12C/SOS1 Binding Assay Kit (Cisbio, 63ADK000CB16PEG) to determine the competitive inhibition of the KRAS-G12C/SOS1 binding by a homogeneous time-resolved fluorescence technique (HTRF) for the preferred compound.
The experimental procedure was as follows (refer to the package insert of the kit for a detailed method): first the compound in the present invention was dissolved in DMSO at a concentration of 20 mM, and diluted with a buffer in the kit by isogradient dilution so that the final concentration of the test compound in the reaction system ranged from 10000 nM to 0.04 nM, and the final concentration of DMSO was 0.5%. 2 μL of the compound was incubated with 4 μL 1×Tag1-SOS1, 4 μL 1×Tag2-KRAS-G12C (containing 10 μM guanosine triphosphate, GTP) for 15 min at 25 °C, then 5 μL 1×Anti-Tag1-Tb3+ and 5 μL 1×Anti-Tag2-XL665 were added into the reaction system for incubation for 3 h under ice. After the incubation, the fluorescence intensity of each well at an excitation wavelength of 337 nm was measured in an HTRF mode on a microplate reader EnVision (PerkinElmer, 2105) and the fluorescence intensity of each well at emission wavelengths of 620 nm and 665 nm was read. The Raio value was calculated using a Formula Ratio=(665 nm/620 nm)×104. The inhibition rate of the compound at each concentration was calculated by comparing with the fluorescence intensity ratio of the control group, and then the IC50 value of the compound was obtained by nonlinear curve fitting with logarithmic concentration-inhibition rate using GraphPad Prism 8, as shown in Table 1.

SOS1 protein = SOS1 protein (Homo sapiens, UniProt Q07889); assay: SOS1 degradation test (Western blot) in NCI-H358 cells; conditions: maximum SOS1 degradation, NCI-H358 (KRAS G12C) cells, 24 h, 37 °C
Protocol: Test Example 2: SOS1 Degradation Test
The degradation of SOS1 by the compound was investigated on KRAS G12C mutant human non-small cell lung cancer cells NCI-H358 (ATCC or Chinese Academy of Sciences stem cell bank), KRAS G12D mutant human lung cancer cells A-427, KRAS G12V mutant human colorectal adenocarcinoma cells SW-620 and KRAS G13D mutant human colorectal adenocarcinoma epithelial cells DLD-1 (ATCC). Specific methods were as follows:
0.95 mL of cells was paved in each well of the 24-well cell culture plate to make the cell density reach 5×10^5 cells/well; the cell plates were placed in a 5% CO2 incubator and culture at 37 °C overnight. Then 50 μL of a diluted compound solution was added to the corresponding wells paved with cells, so that the final concentration of the compound was in the range of 0.03-3000 nM. The final concentration of DMSO is 0.25%. The administered cell plates were cultured in a 5% CO2 incubator at 37 °C for 24 h. After being removed from the 24 wells, the cell culture solution was washed twice with 1×PBS. 180 μL of an RIPA (strong) lysing buffer (Beyotime, P0013B) was added to NCI-H358 cells attached to the bottom of the cell culture plate and supplemented with 1 mM benzyl sulfonyl fluoride, a protease inhibitor mixture (Beyotime, P1008) and a protease phosphatase inhibitor mixture (Beyont, P1045) for lysis. After standing on ice for 30 min, the protein lysis buffer in each well was transferred to a 1.5 mL centrifuge tube and centrifuged at 15000 g and 4 °C for 20 min. The centrifuged cell lysate supernatant was cryopreserved at −80 °C for testing and used to test the degradation level of the SOS1 protein by a WB method. The total protein concentration in the cell lysis supernatant was determined using a BCA Protein Assay Kit (Tiangen, PA115-02).
The concentration of total protein in the cell lysate was determined by BCA, adjusted to 0.5 μg/μL with PBS and 5×SDS-PAGE protein loading buffer (Beyotime, P0015L), placed in a 100 °C water bath for 15 min, then placed in an ice bath on ice for 5 min, centrifuged at 14000 g and 4 °C for 1 min, mixed well as a loading sample of WB. Protein electrophoresis was performed with a precast gel (Kaigene, KGMG010W15), with a loading volume of 10 μL (total protein 5 μg). Constant voltage electrophoresis was carried out at 120 V for 55 min after Tris-MOPS-SDS electrophoresis solution (Adamas, P1598253). After electrophoresis, the protein on the gel strip was transferred to PVDF membrane at constant current 250 mA for 65 min. After transmembrane transfer, the membrane was incubated at room temperature for 30 min in 1×QuickBlock blocking buffer (Beyotime, P0235). After blocking, the PVDF membranes were incubated with an SOS1 primary antibody (Abcam, ab140621) overnight at 4 °C and washed with TBST buffer (2.4 g Tris, 8.8 g NaCl, 1.5 mL Tween 20, adjusted to pH 7.4, diluted to 1 L) for 30 min (10 min/time). The secondary antibody (Abcam, ab205718) was incubated at room temperature for 2 h, the membrane was washed with TBST buffer for 30 min (10 min/time), and finally incubated with Clarity Western ECL Substrate (BIO-RAD, 170-5061) for 5 min to develop luminescence. Chromogenesis and protein mapping were performed by chemiluminescence imaging system (Qixiang, ChemiScope 6200 Touch). The protein chromatogram was analyzed for gray value by Qinxiang chemiluminescence analysis software. The following formula is used: gray level correction value=(target protein gray level value/corresponding internal reference gray level value)×103 to calculate the gray level correction value of each sample. Then the degradation rate was calculated by comparing with the gray level correction value of the control group. Further, the DC50 and Dmax values of the compound were obtained by non-linear curve fitting with logarithmic concentration versus inhibition ratio through GraphPad Prism 8.

| SMILES | IC50 (KRAS-G12C/SOS1) [nM] | NCI-H358 (G12C) Dmax (SOS1 protein) |
| --- | --- | --- |
| Cc1c(C#N)cccc1[C@@H](C)Nc1nnc(C)c2cnc(N3CCC(C(=O)N4CCC(CCOCC5CCN(C(=O)c6ccc(Cl)c(N7CCC(=O)NC7=O)c6)CC5)CC4)CC3)cc12 | 50 to 100 | B (50≤Dmax(%)<80) |
| Cc1nnc(N[C@H](C)c2cc(-c3c(Cl)cccc3CN(C)C)cs2)c2cc([C@H]3CC[C@H](C(=O)N4CCC(CCOCC5CCN(C(=O)c6ccc(Cl)c(N7CCC(=O)NC7=O)c6)CC5)CC4)CC3)ncc12 | 15 to 30 | A (80≤Dmax(%)≤100) |
| Cc1c(C#N)cccc1[C@@H](C)Nc1nnc(C)c2cnc(N3CCC(C(=O)C4CCN(CCCCC5CCN(C(=O)c6ccc(Cl)c(N7CCC(=O)NC7=O)c6)CC5)CC4)CC3)cc12 |  | B (50≤Dmax(%)<80) |
| Cc1c(C#N)cccc1[C@@H](C)Nc1nnc(C)c2cnc(N3CCN(C(=O)N4CCC(CCOCC5CCN(C(=O)c6ccc(Cl)c(N7CCC(=O)NC7=O)c6)CC5)CC4)CC3)cc12 |  | A (80≤Dmax(%)≤100) |
| Cc1c(C#N)cccc1[C@@H](C)Nc1nnc(C)c2cnc(N3CCN(C(=O)C4CCN(CC5CCC6(CC5)CCN(C(=O)c5ccc(F)c(N7CCC(=O)NC7=O)c5)CC6)CC4)CC3)cc12 |  | A (80≤Dmax(%)≤100) |
| Cc1ccc(C(=O)N2CCC3(CCC(CCN4CCC(C(=O)N5CCN(c6cc7c(N[C@H](C)c8cccc(C#N)c8C)nnc(C)c7cn6)CC5)CC4)CC3)CC2)cc1N1CCC(=O)NC1=O | 30 to 50 | A (80≤Dmax(%)≤100) |
| Cc1c(C#N)cccc1[C@@H](C)Nc1nnc(C)c2cnc(N3CCN(C(=O)C4CCN(CC5CCC6(CC5)CCN(C(=O)c5ccc(Br)c(N7CCC(=O)NC7=O)c5)CC6)CC4)CC3)cc12 |  | A (80≤Dmax(%)≤100) |
| Cc1nnc(N[C@H](C)c2cccc3c2CCS3(=O)=O)c2cc(N3CCN(C(=O)C4CCN(CC5CCC6(CC5)CCN(C(=O)c5ccc(Cl)c(N7CCC(=O)NC7=O)c5)CC6)CC4)CC3)ncc12 |  | A (80≤Dmax(%)≤100) |
| Cc1c(C(F)F)cccc1[C@@H](C)Nc1nnc(C)c2cnc([C@H]3CC[C@H](C(=O)N4CCN(CC5CCC6(CC5)CCN(C(=O)c5ccc(Cl)c(N7CCC(=O)NC7=O)c5)CC6)CC4)CC3)cc12 | 50 to 100 | B (50≤Dmax(%)<80) |
| Cc1ccc(C(=O)N2CCC3(CCC(CN4CCC(C(=O)C5CCN(c6cc7c(N[C@H](C)c8cccc9c8CCS9(=O)=O)nnc(C)c7cn6)CC5)CC4)CC3)CC2)cc1N1CCC(=O)NC1=O |  | A (80≤Dmax(%)≤100) |
| Cc1c(C#N)cccc1[C@@H](C)Nc1nnc(C)c2cnc(N3CC4CCC(C3)N4C(=O)C3CCN(CC4CCC5(CC4)CCN(C(=O)c4ccc(Cl)c(N6CCC(=O)NC6=O)c4)CC5)CC3)cc12 |  | A (80≤Dmax(%)≤100) |
| Cc1c(C(F)F)cccc1[C@@H](C)Nc1nnc(C)c2cnc(N3CCN(C(=O)[C@H]4CC[C@H](CN5CCC6(CC5)CCN(C(=O)c5ccc(Cl)c(N7CCC(=O)NC7=O)c5)CC6)CC4)CC3)cc12 | 15 to 30 | A (80≤Dmax(%)≤100) |
| Cc1c(C#N)cccc1[C@@H](C)Nc1nnc(C)c2cnc(N3CCN(C(=O)C4CCN(CC5CCC6(CC5)CCN(C(=O)c5ccc7c(c5)C(=O)N(C5CCC(=O)NC5=O)C7)CC6)CC4)CC3)cc12 (stereo partly drawn) |  | A (80≤Dmax(%)≤100) |
| Cc1c(C#N)cccc1[C@@H](C)Nc1nnc(C)c2cnc(N3CCN(C(=O)C4CCN(CC5CCC6(CC5)CCN(C(=O)c5ccc(Cl)c(N7CCC(=O)NC7=O)c5)CC6)CC4)CC3)cc12 | 15 to 30 | A (80≤Dmax(%)≤100) |
| Cc1ccc(C(=O)N2CCC3(CCN(CC4CCN(C(=O)N5CCN(c6cc7c(N[C@H](C)c8cccc(C#N)c8C)nnc(C)c7cn6)CC5)CC4)CC3)CC2)cc1N1CCC(=O)NC1=O | 15 to 30 | B (50≤Dmax(%)<80) |
| Cc1c(C#N)cccc1[C@@H](C)Nc1nnc(C)c2cnc(N3CCN(C(=O)C4CCN(CCCCN5CCN(C(=O)c6ccc(Cl)c(N7CCC(=O)NC7=O)c6)CC5)CC4)CC3)cc12 | < 15 | C (30≤Dmax (%)<50) |
| Cc1c(C#N)cccc1[C@@H](C)Nc1nnc(C)c2cnc(N3CCN(C(=O)C4CCN(CCCC5CCN(C(=O)c6ccc(Cl)c(N7CCC(=O)NC7=O)c6)CC5)CC4)CC3)cc12 |  | C (30≤Dmax (%)<50) |
| Cc1ccc(C(=O)N2CCC3(CCC(CN4CCC(C(=O)N5CCN(c6cc7c(N[C@H](C)c8cccc(C#N)c8C)nnc(C)c7cn6)CC5)CC4)CC3)CC2)cc1N1CCC(=O)NC1=O | < 15 | A (80≤Dmax(%)≤100) |
| Cc1c(C#N)cccc1[C@@H](C)Nc1nnc(C)c2cnc([C@H]3CC[C@H](C(=O)N4CCC(CCOCC5CCN(C(=O)c6ccc(Cl)c(N7CCC(=O)NC7=O)c6)CC5)CC4)CC3)cc12 | 100 to 1000 | C (30≤Dmax (%)<50) |
| Cc1c(C#N)cccc1[C@@H](C)Nc1nnc(C)c2cnc(N3CC4CC3CN4C(=O)C3CCN(CC4CCC5(CC4)CCN(C(=O)c4ccc(Cl)c(N6CCC(=O)NC6=O)c4)CC5)CC3)cc12 (stereo partly drawn) |  | D (Dmax(%)<30) |
| Cc1c(C#N)cccc1[C@@H](C)Nc1nnc(C)c2cnc(N3CC4CC(C3)N4C(=O)C3CCN(CC4CCC5(CC4)CCN(C(=O)c4ccc(Cl)c(N6CCC(=O)NC6=O)c4)CC5)CC3)cc12 |  | B (50≤Dmax(%)<80) |
| Cc1c(C#N)cccc1[C@@H](C)Nc1nnc(C)c2cnc(N3CCC(C(=O)C4CCN(CC5CCC6(CC5)CCN(C(=O)c5ccc(Cl)c(N7CCC(=O)NC7=O)c5)CC6)CC4)CC3)cc12 |  | A (80≤Dmax(%)≤100) |
| COc1ccc(C(=O)N2CCC3(CCC(CN4CCC(C(=O)N5CCN(c6cc7c(N[C@H](C)c8cc(N)cc(C(F)(F)F)c8)nnc(C)c7cn6)CC5)CC4)CC3)CC2)cc1N1CCC(=O)NC1=O |  | A (80≤Dmax(%)≤100) |
| Cc1c([C@@H](C)Nc2nnc(C)c3cnc(N4CCN(C(=O)C5CCN(CC6CCC7(CC6)CCN(C(=O)c6ccc(Cl)c(N8CCC(=O)NC8=O)c6)CC7)CC5)CC4)cc23)cccc1C(F)(F)F |  | A (80≤Dmax(%)≤100) |
| Cc1ccc(C(=O)N2CCC3(CCC(CN4CCC(C(=O)N5CCN(c6cc7c(N[C@H](C)c8cccc9c8CCS9(=O)=O)nnc(C)c7cn6)CC5)CC4)CC3)CC2)cc1N1CCC(=O)NC1=O |  | A (80≤Dmax(%)≤100) |
| CCc1ccc(C(=O)N2CCC3(CCC(CN4CCC(C(=O)N5CCN(c6cc7c(N[C@H](C)c8cccc(C#N)c8C)nnc(C)c7cn6)CC5)CC4)CC3)CC2)cc1N1CCC(=O)NC1=O |  | A (80≤Dmax(%)≤100) |
